Measured values taken from paper PMC7956476, “Quinoline Functionalized Schiff Base Silver (I) Complexes: Interactions with Biomolecules and In Vitro Cytotoxicity, Antioxidant and Antimicrobial Activities” (Molecules, 2021).

Test system: calf thymus DNA (CT-DNA)
Assay: CT-DNA electronic absorption titration (Wolfe–Shimer)
Type: binding
Details: absorption titration with CT-DNA
Procedure: The interaction of the L1–L5 and complexes Q1–Q15 with calf thymus-DNA was carried out in a Phosphate buffer saline solution pH 7.2 stored at 4 °C. The DNA stock solution was prepared by dissolving CT-DNA sodium salt in Phosphate buffer saline solution with continuous stirring overnight. It was filtered and stored at 4 °C and used within four days. […] A fixed amount of the L1–L5 and complexes Q1–Q15 (50 µM) were prepared by dissolving an appropriate amount in DMSO. […] Therefore, in all the experimental of the interaction of L1–L5 and complexes Q1–Q15 with biomolecules, the final concentration of DMSO in the incubation mixture was ~2% (v/v).
The binding modes of L1–L5 and complexes Q1–Q15 to CT-DNA were characterized through electronic absorption titration by varying concentrations of CT-DNA (0–30 µM) in phosphate buffer saline solution against fixed concentrations (20 µM) of L1–L5 and complexes Q1–Q15. […] The absorbance of CT-DNA is cancelled by adding equivalent amounts of CT-DNA to both the tested compounds and the reference solutions.

SMILES: O=[N+]([O-])[O-].[Ag+] [AgNO3, silver nitrate, reference compound]
- hypochromic shift in the absorption bands on addition of CT-DNA: 23.64–50.86%
